This is an account of results in patent US20190336490A1, “COMPOSITIONS AND METHODS FOR INCREASING REMYELINATION” (Frequency Therapeutics, Inc., priority 2018, published 2019).

The experiment relates to oligodendrocyte lineage cells in lysolecithin focal demyelinated lesion. The conditions noted are these: 10 mg/kg once daily i.p., 7 days starting 3 days post lesion; relative to vehicle treated mice.

`CN1CCC[C@@H]1CCO[C@](C)(c1ccccc1)c1ccc(Cl)cc1` [Clemastine]: the “percentage of mature oligodendrocytes” value is listed as “increases”.
